Tested on: Madin Darby canine kidney cells (MDCK)
Conditions: dog

SMILES: NC(=O)c1ncn([C@@H]2O[C@H](CO)[C@@H](O)[C@H]2O)n1 [ribavirin, reference compound]
- MCC (minimum cytotoxic concentration): > 100 µM
